Data set [1] in a line: Approximate solubility in water and at pH 1 (supplemental testing). The data set is classed as physicochemical. The settings on record: for Form by XRPD of solid residue, Water: after equilibration in water > 20 hours. As to the method:
An approximate solubility of the below-listed salts was determined in water and at pH 1 by suspending 5-15 mg of the salt in 1 mL of solvent. The samples were allowed to equilibrate at ambient temperature for at least 20 hours. The supernatant was filtered and used for the solubility determination, which was done gravimetrically, for the aqueous solubility, and by UV-VIS spectroscopy for pH 1. The solid residue was analyzed by XRPD. […] They were subsequently analyzed by XRPD and TGA, if the latter deemed necessary. Only irreversible or slowly reversible events can be detected.

The nature of data set [2]: Solubility, 24-hour equilibration at room temperature. Format: physicochemical. As to conditions: for Solubility: approx. at 25° C. As to the method:
Aqueous Solubility: A carefully weighted amount (20-50 mg) of sample is dissolved in 1 ml of solvent with 24-hour equilibration at room temperature. The solubility was determined either gravimetrically or by UV-VIS spectrometry. The pH of the clear solution was also measured. However, the difficulty of determining salt solubilities in water should be stressed, since upon dissolution dissociation to the free form is possible, which affects both the solubility and the pH. It's not unlikely that attempts to make solutions of a salt at a concentration well below the reported solubility of the salt to be unsuccessful (for a full discussion see: M. Pudipeddi, A. T. M. Serajuddin, D. J. W. Grant, and P. H. Stahl in “Handbook of Pharmaceutical Salts Properties Selection and Use” page 27 and references therein).

Data on two substances can be found in patent US20110112308A1 (NOVARTIS AG, priority 2006, published 2011).

With “1:1 propionate salt of N-hydroxy-3-[4-[[[2-(2-methyl-1H-indol-3-yl)ethyl]amino]methyl]phenyl]-2E-2-propenamide”, in data set [1], the approximate aqueous solubility is approximately 4000 µg/mL and the “Form by XRPD of solid residue, Water” value is on record as “free base”. Further, the “S (approximate solubility), pH 1” value in data set [1] (EQ t > 20 hours, ambient temperature, UV-VIS) was 0.34 mg/mL. Also, the “S (approximate solubility), Water” value in data set [1] (EQ t > 20 hours, ambient temperature, gravimetric) is 4190 µg/mL. For the same substance, the “Form by XRPD of solid residue, Water” value in data set [1] (listed as propionate) is “free base only”.
What is called aqueous solubility is how much of the substance goes into solution per volume. Low values mean a poorly soluble substance, high ones a readily soluble substance. The term Solubility denotes how much of the substance goes into solution per volume. A low value points to little dissolved substance. Turning to “2:1 L-tartarate salt of N-hydroxy-3-[4-[[[2-(2-methyl-1H-indol-3-yl)ethyl]amino]methyl]phenyl]-2E-2-propenamide”, the aqueous solubility in data set [2] amounted to 3500 µg/mL. In data set [2], the “solubility in alcohols, in words” value was “limited”. The Solubility is reported as 0.4 mg/mL in data set [2] (0.1N HCl); 0.3< mg/mL in data set [2] (2-Propanol); 4.6 mg/mL in data set [2] (Acetone); 0.5< mg/mL in data set [2] (Ethanol); 3.9 mg/mL in data set [2] (Ethyl acetate); 2.6 mg/mL in data set [2] (Methanol). Also, the Solubility is recorded as 7.2 mg/mL in data set [2] (Propylene glycol), 3.5 mg/mL in data set [2] (Water) and 1.9 mg/mL in data set [2] (pH = 6.8 buffer). Also, the “approximate solubility in water as %” value in data set [2] (estimated from mg/mL assuming solution density 1 g/mL) is “approximately 0.3%”.
